## Apparent affinities of Ab-14 variants for a coronavirus HR2 peptide

Data: MIT Lincoln Laboratory AlphaSeq set, Engelhart et al. 2022, doi:10.1038/s41597-022-01779-4, as distributed in FLAb.

Target: peptide PDVDLGDISGINAS, taken from heptad repeat 2 (HR2) of SARS-CoV-2 spike.

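In library AAYL49, one, two or three CDR residues were substituted; doubles and triples were drawn at random. The scFvs were displayed on barcoded MATa yeast, the peptide on MATalpha yeast. Pairs that bind mate more often; barcode pairs of the diploids are counted by sequencing. Read counts were normalised to the haploid input and turned into Kd by a linear fit to BCL2-family pairs of known affinity, for each replicate. Each pool was mated in three replicate cultures.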

Each scFv is VH, the linker GGGGSGGGGSGGGGS, VL, as in the parent Ab-14, and differs from it in the CDRs of the heavy chain only.
VH: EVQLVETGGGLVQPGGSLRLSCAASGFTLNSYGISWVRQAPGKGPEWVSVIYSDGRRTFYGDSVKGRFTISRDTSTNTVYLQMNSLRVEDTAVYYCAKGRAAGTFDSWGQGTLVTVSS
VL: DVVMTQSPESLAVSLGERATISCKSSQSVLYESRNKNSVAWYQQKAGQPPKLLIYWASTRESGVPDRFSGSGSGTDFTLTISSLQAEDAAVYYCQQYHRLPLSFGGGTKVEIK

Positions count from residue 1 of the parent VH; T28N puts N in place of T. Scale: log10 of Kd in nM, estimated from mating counts; low values are strong binders. A mean of the replicates is given; it leaves out those without a signal. "n.d." marks a missing value. The strain was present, yet no cells mated with the target were sequenced in that replicate, which points to weak or no binding. Parent in this assay: reference entry 0.65, copy in this library 4.11 (one replicate of three). As a blank, each scFv also met three strains without target: over library AAYL49, 15% of these pairings were detected, typically at 4.06 and seldom below 2.83. Also given: how often the same scFv was detected with the empty control strains, with their mean in brackets.

changes	log10 Kd (nM) by replicate	log10 Kd (nM), mean	control signals
T28N+S53I+T58R	n.d. 3.26 n.d.	3.26	1 of 9 (3.16)
G55Y+F59N+D62Y	4.29 n.d. n.d.	4.29	1 of 9 (4.07)
T28G+T104P+S107F	n.d. 4.01 n.d.	4.01	5 of 9 (4.78)
G33H+V50M+G55E	n.d. n.d. n.d.	n.d.	0 of 9
I51K+S53T+S107D	n.d. 3.80 n.d.	3.80	4 of 9 (4.99)
T28G+V50T+A101R	n.d. n.d. n.d.	n.d.	1 of 9 (3.60)
Y32Q+S53W+F105K	n.d. n.d. n.d.	n.d.	2 of 9 (3.84)
G26K+K65H+D106L	n.d. 4.93 n.d.	4.93	3 of 9 (3.37)
L29P+Y32R+Y52L	n.d. n.d. n.d.	n.d.	0 of 9
R56M+R100Y+A102E	n.d. n.d. n.d.	n.d.	3 of 9 (3.16)
G33M+I34M+G55K	n.d. n.d. n.d.	n.d.	1 of 9 (2.69)
S31P+V50N+G61L	n.d. 3.03 n.d.	3.03	0 of 9
T28V+G55D+R57L	n.d. n.d. n.d.	n.d.	0 of 9
S63R+V64M	4.66 3.31 n.d.	3.98	4 of 9 (4.44)
F27Y+V50K+Y52K	n.d. n.d. n.d.	n.d.	0 of 9
I34G+V50W+S53D	5.80 n.d. 4.06	4.93	6 of 9 (4.58)
F27A+V64W+T104R	5.37 4.23 n.d.	4.80	4 of 9 (4.44)
S35K+S53N+S107V	n.d. n.d. n.d.	n.d.	0 of 9
F27Q+Y32K+G33Y	n.d. 4.18 4.69	4.43	1 of 9 (5.13)
Y32E+G55E+A102D	n.d. 4.91 5.13	5.02	1 of 9 (4.81)
S53M+Y60R+R100A	4.20 n.d. n.d.	4.20	2 of 9 (3.42)
G55T+K65R+A101W	n.d. n.d. n.d.	n.d.	0 of 9
D54N+R56F+Y60A	n.d. n.d. n.d.	n.d.	0 of 9
F27Y+Y52A	n.d. n.d. n.d.	n.d.	1 of 9 (3.27)
F27I+L29R+T58F	n.d. n.d. 5.20	5.20	2 of 9 (3.87)
S53I+D62K+F105A	n.d. n.d. n.d.	n.d.	0 of 9
T28N+I34Y+K65Q	3.64 4.09 4.51	4.08	4 of 9 (4.52)
L29Y+K65R+S107K	n.d. n.d. n.d.	n.d.	0 of 9
F27Y+R57Y+F105Y	n.d. n.d. n.d.	n.d.	0 of 9
G33Y+Y60P+R100P	n.d. n.d. n.d.	n.d.	0 of 9
G26F+T28A+D106P	n.d. n.d. 3.88	3.88	0 of 9
S31W+R56C+F59D	3.75 4.10 n.d.	3.93	3 of 9 (4.40)
T28N+S63E	0.41 0.76 0.47	0.55	2 of 9 (5.41)
G103Q+S107E	n.d. n.d. n.d.	n.d.	1 of 9 (5.48)
S35N+R57E+S107I	n.d. n.d. n.d.	n.d.	0 of 9
L29G+N30W+Y52A	n.d. n.d. n.d.	n.d.	0 of 9
N30W+R100M+A102K	n.d. n.d. n.d.	n.d.	0 of 9
S31Q+I51Y+D54V	n.d. n.d. n.d.	n.d.	0 of 9
V64M+A101Q+D106A	n.d. n.d. n.d.	n.d.	0 of 9
R57M+Y60R+A102Q	n.d. n.d. n.d.	n.d.	1 of 9 (3.73)
Y32E+S35K+S107K	n.d. n.d. n.d.	n.d.	0 of 9
Y52T+V64P+A102K	n.d. n.d. n.d.	n.d.	0 of 9
T28N+G55S+S63A	3.72 n.d. 4.10	3.91	0 of 9
T28C+I51R+G99M	n.d. n.d. n.d.	n.d.	0 of 9
V50N+K65A+S107Q	n.d. 3.82 n.d.	3.82	2 of 9 (3.96)
N30Y+A101R+A102P	2.93 4.00 3.43	3.45	1 of 9 (3.48)
I34R+I51K+G99W	n.d. n.d. n.d.	n.d.	1 of 9 (4.01)
Y52K+S53R+T58Y	n.d. n.d. n.d.	n.d.	1 of 9 (2.80)
V50M+Y60A+K65S	n.d. n.d. n.d.	n.d.	0 of 9
F27R+S53Y+D62F	4.16 n.d. n.d.	4.16	2 of 9 (4.07)
N30C+S53C+T104R	n.d. n.d. n.d.	n.d.	3 of 9 (4.52)

The last 8 entries again:

{"changes": "T28C+I51R+G99M", "log10 Kd (nM) by replicate": "n.d. n.d. n.d.", "log10 Kd (nM), mean": "n.d.", "control signals": "0 of 9"}
{"changes": "V50N+K65A+S107Q", "log10 Kd (nM) by replicate": "n.d. 3.82 n.d.", "log10 Kd (nM), mean": "3.82", "control signals": "2 of 9 (3.96)"}
{"changes": "N30Y+A101R+A102P", "log10 Kd (nM) by replicate": "2.93 4.00 3.43", "log10 Kd (nM), mean": "3.45", "control signals": "1 of 9 (3.48)"}
{"changes": "I34R+I51K+G99W", "log10 Kd (nM) by replicate": "n.d. n.d. n.d.", "log10 Kd (nM), mean": "n.d.", "control signals": "1 of 9 (4.01)"}
{"changes": "Y52K+S53R+T58Y", "log10 Kd (nM) by replicate": "n.d. n.d. n.d.", "log10 Kd (nM), mean": "n.d.", "control signals": "1 of 9 (2.80)"}
{"changes": "V50M+Y60A+K65S", "log10 Kd (nM) by replicate": "n.d. n.d. n.d.", "log10 Kd (nM), mean": "n.d.", "control signals": "0 of 9"}
{"changes": "F27R+S53Y+D62F", "log10 Kd (nM) by replicate": "4.16 n.d. n.d.", "log10 Kd (nM), mean": "4.16", "control signals": "2 of 9 (4.07)"}
{"changes": "N30C+S53C+T104R", "log10 Kd (nM) by replicate": "n.d. n.d. n.d.", "log10 Kd (nM), mean": "n.d.", "control signals": "3 of 9 (4.52)"}